Drawing on PubChem BioAssay AID652163 (Broad Institute, 2013), this text covers inhibition for 62 compounds.

Chains of the proteins cited; added tags and fusions are not shown.
UniProt P26447, whole entry: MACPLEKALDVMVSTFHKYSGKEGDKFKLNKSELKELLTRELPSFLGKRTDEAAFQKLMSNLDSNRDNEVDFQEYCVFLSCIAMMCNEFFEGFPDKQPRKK

The term inhibition denotes the change of the read-out against control, counted positive when it falls.

The list shows a part of the results, in another mix than the full data. Some structures show a salt or complex split into parts, the way the source records it. The source made the active and inactive calls.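 Rule for the calls: active = mean inhibition of at least 70% across replicates, with every replicate also reaching that level; inconclusive = mean inhibition reaches 70% but some replicates fall short; inactive = mean inhibition below 70%.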

The target in this assay is Protein S100-A4 (Homo sapiens) (UniProt P26447). The assay is described as follows: human S100A4 protein-peptide interaction blockers – biochemical, fluorescence polarization, TAMRA-MyoIIA peptide, primary screen (AID 652163). Conditions: at 10.7 µM, hits give high values.
Take `CCN(CC)CCCOC(=O)C(O)(c1ccccc1)c1ccccc1`: the inhibition was inactive: -8.73%. With `COc1ccccc1-c1ccccn1.O=[N+]([O-])c1cc([N+](=O)[O-])c(O)c([N+](=O)[O-])c1`, the inhibition was inactive: -1.2%. Under `O=[N+]([O-])c1cc([N+](=O)[O-])c(Nc2cccnc2)c([N+](=O)[O-])c1` stands inactive: -5.1%; under `Cc1cccc(C)c1OP(C)(N)=O` (configuration not stated), inactive: -7.53%; under `CC(C)(C)c1ccc(OP(C)(=O)Nc2ccc(SC(F)(F)F)cc2)cc1` (configuration not stated), inactive: -0.605%. Under `O=[N+]([O-])c1ccc2c(c1)C=Nc1ccccc1O2` stands inactive: 1.54%; under `COc1ccccc1OP(C)(=O)Nc1cc(Cl)ccc1C` (configuration not stated), inactive: 3.52%; under `Cc1cc(C)cc(OP(C)(N)=O)c1` (configuration not stated), inactive: -2.06%. The figure for `COc1ccccc1OP(C)(=O)Nc1ccccc1` (configuration not stated) is inactive: -0.694%; for `CP(=O)(Nc1ccccc1Br)Oc1ccccc1` (configuration not stated) it is inactive: 2.72%; for `CP(=O)(Oc1ccccc1)OC(c1ccccc1)C(F)(F)F` (configuration not stated) it is inactive: -0.705%. On to `CP(=O)(Nc1ccc(SC(F)(F)F)cc1)Oc1ccc(Cl)cc1` (configuration not stated), for which the inhibition was inactive: -0.317%.

Take `CCc1ccc(OP(C)(=O)N2CCN(c3ccc([N+](=O)[O-])cc3)CC2)cc1` (configuration not stated): the inhibition is inactive: 1.81%. As to `CP(=O)(NC(=O)Nc1ccccc1)Oc1ccccc1` (configuration not stated), the inhibition was inactive: -12.9%. The figure for `CCOC(=O)c1ccc(NP(C)(=O)Oc2ccc(OC)cc2)cc1` (configuration not stated) is inactive: -1.63%. As to `O=[N+]([O-])c1cc([N+](=O)[O-])c(O)c([N+](=O)[O-])c1.c1ccc(Oc2ccncc2)cc1`, the inhibition is inactive: -16.8%. On to `CP(=O)(Nc1ccccn1)Oc1ccc(Cl)cc1` (configuration not stated), for which the inhibition was inactive: -0.397%.

For `O=[N+]([O-])c1cc([N+](=O)[O-])c(-n2nnc3ccccc32)c([N+](=O)[O-])c1`, the inhibition is inactive: 2.35%. The figure for `CN(Cc1cccnc1)C(=O)COc1ccc(Cl)c(Cl)c1.O=[N+]([O-])c1cc([N+](=O)[O-])c(O)c([N+](=O)[O-])c1` is inactive: 3.24%; for `CCOC(=O)C(CC)C1=NC(C)(C)Cc2ccccc21.O=[N+]([O-])c1cc([N+](=O)[O-])c(O)c([N+](=O)[O-])c1` (configuration not stated) it is inactive: -0.464%; for `O=[N+]([O-])c1cc([N+](=O)[O-])c(Nc2nnnn2CCO)c([N+](=O)[O-])c1` it is inactive: -5.47%. The figure for `CN1CCCCC1COC(=O)C1(O)c2ccccc2CCc2ccccc21` (configuration not stated) is inactive: -42.7%; for `CCCOc1ccc(NP(C)(=O)Oc2ccc(Cl)cc2)cc1` (configuration not stated) it is inactive: 1.88%. The figure for `COc1ccc(-c2ccccn2)cc1.O=[N+]([O-])c1cc([N+](=O)[O-])c(O)c([N+](=O)[O-])c1` is inactive: 0.126%; for `O=C(O)c1cccc(Nc2c([N+](=O)[O-])cc([N+](=O)[O-])cc2[N+](=O)[O-])c1` it is inactive: 4.9%; for `COc1ccccc1OP(C)(=O)Nc1cccc(Br)c1` (configuration not stated) it is inactive: 1.75%.

With `Cc1cc(C)cc(OP(C)(=O)Nc2ccc(C)cc2C)c1` (configuration not stated), the inhibition is inactive: -0.263%. The figure for `CCOC(=O)c1ccc(NP(C)(=O)Oc2cc(C)cc(C)c2)cc1` (configuration not stated) is inactive: -4.14%; for `CP(=O)(Nc1cccc(Br)c1)Oc1ccccc1` (configuration not stated) it is inactive: -0.188%; for `Cc1cc(C)cc(OP(C)(=O)Nc2ccccn2)c1` (configuration not stated) it is inactive: 10.6%. Under `O=[N+]([O-])c1cc([N+](=O)[O-])c(Nc2ccc(Cl)cc2)c([N+](=O)[O-])c1` stands inactive: -3.94%.

In the case of `CC(C)c1ccc(OP(C)(=O)Nc2ccc(SC(F)(F)F)cc2)cc1` (configuration not stated), the inhibition was inactive: 5.63%.

`CP(=O)(Nc1ccccc1F)Oc1ccccc1` (configuration not stated): the inhibition is inactive: 7.82%. Turning to `O=C(OCCN1CCN(CCOCc2ccccc2)CC1)C(O)(c1ccccc1)c1ccccc1`, the inhibition is inactive: 0.808%. The figure for `O=C(OC1CN2CCC1CC2)c1ccc([N+](=O)[O-])cc1` (configuration not stated) is inactive: -2.71%; for `COc1ccc2c(c1O)-c1c(O)c(OC)cc3c1[C@H](C2)[N+](C)(C)CC3.O=[N+]([O-])c1cc([N+](=O)[O-])c([O-])c([N+](=O)[O-])c1[O-]` it is inactive: 1.67%; for `CCN(CC)CCCNc1ccccc1[N+](=O)[O-].O=[N+]([O-])c1cc([N+](=O)[O-])c(O)c([N+](=O)[O-])c1` it is inactive: 9.65%. Regarding `COc1ccc(OP(C)(=O)Nc2ccc(SC(F)(F)F)cc2)cc1` (configuration not stated), the inhibition is inactive: 4.61%. The figure for `Cc1c([N+](=O)[O-])cc([N+](=O)[O-])c(Br)c1[N+](=O)[O-]` is inactive: -4.57%; for `O=[N+]([O-])c1cc([N+](=O)[O-])c(OC2CCCCC2O)c([N+](=O)[O-])c1` (configuration not stated) it is inactive: 4.06%; for `CCCCCOc1ccc(NP(C)(=O)Oc2ccc(Cl)cc2Cl)cc1` (configuration not stated) it is inactive: -5.36%. With `COc1ccc(NP(C)(=O)Oc2ccccc2OC)cc1` (configuration not stated), the inhibition was inactive: -13.2%.

As for `O=[N+]([O-])c1cc([N+](=O)[O-])c(NCC2CCS(=O)(=O)C2)c([N+](=O)[O-])c1` (configuration not stated), the inhibition is inactive: -1.61%. The figure for `Cc1cc(-c2cccc3ccccc23)c(C)cn1.O=[N+]([O-])c1cc([N+](=O)[O-])c(O)c([N+](=O)[O-])c1` is inactive: 7.1%; for `O=[N+]([O-])c1ccc(OP2(=O)COCCO2)cc1` (configuration not stated) it is inactive: 6.9%; for `Cc1c(C(c2ccc3c(c2)OCO3)c2c(C)n(C)n(-c3ccccc3)c2=O)c(=O)n(-c2ccccc2)n1C.O=[N+]([O-])c1cc([N+](=O)[O-])c(O)c([N+](=O)[O-])c1` it is inactive: -3.33%. The figure for `CP(=O)(Nc1ccc(SC(F)(F)F)cc1)Oc1ccc(F)cc1` (configuration not stated) is inactive: -4.58%; for `CCOP(=O)(CC)OCC` it is inactive: 16.8%; for `O=[N+]([O-])c1cc([N+](=O)[O-])c(C(F)(F)F)c([N+](=O)[O-])c1O` it is inactive: -3.11%. As for `CCc1ccc(OP(C)(=O)Nc2cccnc2)cc1` (configuration not stated), the inhibition is inactive: 1.15%.

In the case of `O=C(OCCCN1CCCC1)C(O)(c1ccccc1)C1CCCCC1` (configuration not stated), the inhibition was inactive: 3.59%.

For `COc1ccccc1OP(C)(=O)Nc1ccccc1Br` (configuration not stated), the inhibition was inactive: 1.76%.

For the compound `CN(C)C(=O)c1c([N+](=O)[O-])cc([N+](=O)[O-])cc1[N+](=O)[O-]`, the inhibition is inactive: 0.559%.

For `Nc1ccc2c(ccc3cccnc32)n1.O=[N+]([O-])c1cc([N+](=O)[O-])c(O)c([N+](=O)[O-])c1`, the inhibition was inactive: -0.0595%. For `CCOC(=O)c1ccc(NP(C)(=O)Oc2ccc(Cl)cc2)cc1` (configuration not stated), the inhibition was inactive: -5.56%. The figure for `Cc1cc(C)cc(OP(C)(=O)Nc2cccc(C(F)(F)F)c2)c1` (configuration not stated) is inactive: -5.35%; for `O=C1C(O)=C([N+](=O)[O-])C(=O)C(O)=C1[N+](=O)[O-]` it is inactive: -3.02%; for `CP(=O)(OCCOc1ccccc1)OCCOc1ccccc1` it is inactive: 2.11%. In the case of `CP(=O)(Nc1ccc(Cl)cc1Cl)Oc1ccccc1` (configuration not stated), the inhibition is inactive: 0.882%. As for `CCCCCCCCCCCCCCCC1C[N+](C)(C)CCOP(C)(=O)O1` (configuration not stated), the inhibition was inactive: 1.76%. The figure for `COc1ccccc1OP(C)(=O)Nc1ccc(Br)cc1` (configuration not stated) is inactive: -1.69%. Under `O=[N+]([O-])c1cc([N+](=O)[O-])c(Nc2ccccn2)c([N+](=O)[O-])c1` stands inactive: -0.236%.
